This is a selection; strong and weak results do not stand in their true shares.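 Cells were grown in 96-well plates and exposed to the test compound at a single concentration for 48 hours; results are reported as percent growth, with values below 10 considered active.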 Active and inactive are the calls of the source.
How the values were obtained:
Assay in all cases: NCI-60 one-dose screen, 48 h (100 = growth as untreated, 0 = no growth, -100 = all killed)
Conditions in all cases: 10 µM
[1] = test system: SK-MEL-2 melanoma
[2] = test system: SN12C renal
[3] = test system: UO-31 renal
[4] = test system: TK-10 renal
[5] = test system: ACHN renal
[6] = test system: CAKI-1 renal
[7] = test system: A498 renal
[8] = test system: HL-60(TB) leukemia
[9] = test system: CCRF-CEM leukemia
[10] = test system: MOLT-4 leukemia
[11] = test system: SR leukemia
[12] = test system: RPMI-8226 leukemia
[13] = test system: OVCAR-8 ovarian
[14] = test system: OVCAR-5 ovarian
[15] = test system: OVCAR-4 ovarian
[16] = test system: SK-OV-3 ovarian
[17] = test system: IGROV1 ovarian
[18] = test system: OVCAR-3 ovarian
[19] = test system: HS 578T breast
[20] = test system: EKVX NSCLC

Measured: growth

Cc1ccc(S(=O)(=O)CN(CCBr)CCBr)cc1
inactive: [1] 106% | [2] 93.7% | [3] 91.9% | [4] 112% | [5] 98.3% | [6] 89.4% | [7] 112% | [8] 110% | [9] 110% | [10] 97.5% | [11] 123% | [12] 106% | [13] 91.8% | [14] 112% | [15] 102% | [16] 105% | [17] 103% | [18] 120% | [19] 107%

ClCCSC(SCCCl)=C(SCCCl)SCCCl
inactive: [1] 129% | [20] 92.7% | [2] 64.6% | [4] 96.3% | [5] 36.8% | [6] 41.2% | [7] 107% | [8] 50.7% | [9] 38.9% | [10] 66.4% | [12] 86.3% | [13] 83.1% | [14] 105% | [15] 105% | [16] 95.2% | [17] 94.3% | [18] 103% | [19] 96%

Cc1ccc(C(=O)N(CCCl)CCCl)cc1
inactive: [1] 112% | [2] 99.6% | [3] 86.1% | [4] 108% | [5] 93.1% | [6] 82.4% | [7] 102% | [8] 94.4% | [10] 100% | [11] 109% | [12] 103% | [13] 99.1% | [14] 97.3% | [15] 97.2% | [16] 114% | [17] 99% | [18] 115%

OCC#CCN(CCCl)CCCl
inactive: [1] 104% | [2] 96% | [3] 81.1% | [4] 102% | [5] 95.8% | [6] 72% | [7] 95% | [8] 88% | [9] 60.9% | [10] 76.6% | [11] 32.5% | [12] 94.4% | [13] 89.3% | [14] 107% | [15] 109% | [16] 99.6% | [17] 72.3% | [18] 110% | [19] 123%

Source: PubChem BioAssay (NCI)
